# Antibody variant affinities, Ab-95 light chain, assay 2

The target is the same throughout: PDVDLGDISGINAS, from the HR2 region of SARS-CoV-2 spike.

Ab-95 is the parent antibody, in scFv form: VH, then a 15-residue (Gly4Ser)3 linker, then VL. The heavy chain is unchanged in all variants.
VH: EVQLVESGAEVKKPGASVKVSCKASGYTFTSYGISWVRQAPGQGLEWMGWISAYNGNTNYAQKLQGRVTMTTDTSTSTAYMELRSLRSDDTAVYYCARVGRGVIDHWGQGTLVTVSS
VL: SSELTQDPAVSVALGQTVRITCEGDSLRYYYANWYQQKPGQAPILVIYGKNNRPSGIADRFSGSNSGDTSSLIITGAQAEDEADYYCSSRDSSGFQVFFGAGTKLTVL

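Phage display of a naive human antibody library on the peptide gave the parent. Variants in AAYL52 differ from the parent at up to three CDR positions; double and triple changes were sampled at random. AlphaSeq pools MATa yeast showing the antibodies with MATalpha yeast showing the peptide. Pairs that bind mate more often; barcode pairs of the diploids are counted by sequencing. Each replicate has its own calibration line, from reference interactions of the BCL2 family. Each pool was mated in three replicate cultures.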

Each variant is given by its three light chain CDRs, as the data file delimits them; those of the parent are EGDSLRYYYAN, GKNNRPS, SSRDSSGFQVF.
Numbers give log10(Kd / nM), so 0 is 1 nM and 3 is 1 µM. Smaller is tighter.
A pair that was not seen in that replicate is written "nd"; this usually means weak binding, but a binder can also be missed.
Nonspecific signal, from three strains lacking the peptide, appeared in 28% of pairings of library AAYL52, centred on 3.91 (5% of these signals below 2.90); values are not corrected for it. For each scFv, signals with the empty controls are counted beside the result, with their mean in brackets.

CDR-L1,CDR-L2,CDR-L3,"log10 Kd, replicates",signal with controls
EGDSLRKYYAN,GKNNRMS,SSRDSSGFQVF,2.53 2.35 2.12,4 of 9 (4.26)
EGDSLRYYYWN,GKNNRPS,SVRDSSGFQVF,nd nd 3.99,2 of 9 (4.07)
EGDSLRYYFAN,GKMNRPS,SGRDSSGFQVF,5.13 3.71 4.78,4 of 9 (4.29)
EGDSLRYDYAK,GKNNRPS,SMRDSSGFQVF,1.81 2.03 1.40,1 of 9 (3.58)
IGDSLRYYSAN,GKNNRPS,NSRDSSGFQVF,1.90 1.71 1.25,4 of 9 (3.94)
EGDSLRYYYYN,HKNNRPW,SSRDSSGFQVF,nd nd nd,0 of 9
EGDSLRYYYAN,GKNNRPS,SSRDRSGFQVF,2.21 2.40 2.39,0 of 9
YGDSHTYYYAN,GKNNRPS,SSRDSSGFQVF,nd nd nd,1 of 9 (3.33)
EGDSLGYYYAN,GKNNRAS,SSRDSSGQQVF,2.60 2.47 2.53,3 of 9 (3.33)
EGDSLRWNYKN,GKNNRPS,SSRDSSGFQVF,nd nd nd,0 of 9
EGDSLRYYYAN,GKNNRPS,SDRDVSGFQLF,2.35 3.08 2.80,1 of 9 (3.56)
EGDSLRYYWAN,GKNNRPS,SCRQSSGFQVF,3.53 nd nd,2 of 9 (3.48)
EGDSLRYYWAN,PKNNRPS,SSRDSSGFQVF,3.91 4.92 4.37,7 of 9 (3.45)
EGDSLRYYYAN,GKYPRPS,SSRDSSGFQVK,3.91 nd nd,1 of 9 (4.40)
EWDSLRDYYAN,GKNNRVS,SSRDSSGFQVF,5.13 nd nd,2 of 9 (3.57)
EGDDLRYYYAN,GKNNRPS,SSRDSSGFQVF,2.33 2.46 2.18,6 of 9 (3.79)
EGDSSRYVYAN,GKNNRPS,SARDSSGFQVF,2.63 1.92 2.96,3 of 9 (4.37)
EGDSLWYYYHN,GKNNRPS,SSRDSSGFQVF,nd nd nd,1 of 9 (4.23)
EGDSLRYYYAW,GKNNRPS,SSRDFSGLQVF,nd nd nd,1 of 9 (4.45)
EGDSYRYYHAN,GKNNRPS,SSRDSSGFQKF,4.36 4.42 nd,3 of 9 (4.01)
HGDSLRYYYAN,GGNNRPE,SSRDSSGFQVF,1.43 1.69 1.13,2 of 9 (3.81)
EGDSRRYYYAN,GKNNRPE,SFRDSSGFQVF,nd nd 3.31,3 of 9 (3.95)
EGDSLRYYYAN,VKNNRPS,ESRDSEGFQVF,4.98 4.68 nd,4 of 9 (4.24)
EGDSLRYYYAN,KKNNRPW,WSRDSSGFQVF,3.76 3.83 4.16,0 of 9
EGDSLRQYYAN,GKNNFPS,SSRDSSDFQVF,nd 4.12 3.50,3 of 9 (3.65)
RGDSLRYYTAN,GYNNRPS,SSRDSSGFQVF,1.96 1.57 1.22,3 of 9 (3.50)
AKDSLRYYYAN,GKNTRPS,SSRDSSGFQVF,2.98 2.15 2.24,3 of 9 (3.28)
EGDMLRYYYAN,GKNNRPS,SSRFSSGFDVF,3.04 nd nd,1 of 9 (4.04)
EGDRLRYYYAN,GKNNRPS,SSPDSSGFQNF,nd nd nd,0 of 9
EGDSLRFYYAN,GKNNRPS,SSRDSSGFQFK,nd nd nd,0 of 9
EGDSLRYYYAN,GKNNRPS,SSQDSSGFPVS,2.08 2.19 1.53,2 of 9 (3.67)
HGDSLRYYYAN,GKNNRPS,LSRDSSFFQVF,nd nd nd,0 of 9
EGDSLRYGYAN,GKNNRPS,SSRDSSGFQYD,1.93 2.03 1.65,5 of 9 (3.65)

Picked from the list: the 5 lowest averages where every replicate gave a value.

CDR-L1,CDR-L2,CDR-L3,"log10 Kd, replicates",signal with controls
HGDSLRYYYAN,GGNNRPE,SSRDSSGFQVF,1.43 1.69 1.13,2 of 9 (3.81)
RGDSLRYYTAN,GYNNRPS,SSRDSSGFQVF,1.96 1.57 1.22,3 of 9 (3.50)
IGDSLRYYSAN,GKNNRPS,NSRDSSGFQVF,1.90 1.71 1.25,4 of 9 (3.94)
EGDSLRYDYAK,GKNNRPS,SMRDSSGFQVF,1.81 2.03 1.40,1 of 9 (3.58)
EGDSLRYGYAN,GKNNRPS,SSRDSSGFQYD,1.93 2.03 1.65,5 of 9 (3.65)

Source: Engelhart et al. 2022 (doi:10.1038/s41597-022-01779-4), MIT Lincoln Laboratory and A-Alpha Bio; data file from the FLAb repository.